Test results taken from patent US7314879B2, “Melanocortin receptor agonists” (Eli Lilly and Company, priority 2002, dated 2008).

Amino acid sequences for entries named in this document (tags omitted).
UniProt P32245, whole entry: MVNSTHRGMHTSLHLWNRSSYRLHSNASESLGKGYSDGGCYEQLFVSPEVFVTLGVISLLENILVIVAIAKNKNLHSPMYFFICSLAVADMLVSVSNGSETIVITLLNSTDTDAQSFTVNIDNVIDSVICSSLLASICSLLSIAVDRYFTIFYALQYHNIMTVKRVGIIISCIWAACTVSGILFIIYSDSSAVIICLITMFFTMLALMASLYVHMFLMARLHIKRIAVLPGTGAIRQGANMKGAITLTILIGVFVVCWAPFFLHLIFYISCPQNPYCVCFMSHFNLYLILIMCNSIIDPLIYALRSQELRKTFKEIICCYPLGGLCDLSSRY

Key:
[1] = biological target: T1, MC4 (Homo sapiens, UniProt P32245); test: Radioligand binding assay: competitive inhibition of 125I-NDP-alpha-MSH binding to membranes of stably transfected HEK 293 cells; conditions: read-out: MC4 Ki; 125I-NDP-alpha-MSH competition; Ki from IC50 by Cheng-Prusoff equation; tested form: TFA
Description: The radioligand binding assay is used to identify competitive inhibitors of ^125I-NDP-alpha-MSH binding to cloned human MCRs using membranes from stably transfected human embryonic kidney (HEK) 293 cells.
HEK 293 cells transfected with human or rat melanocortinin receptors are grown either as adherent monolayers or suspension culture. Monolayer cells are grown in roller bottle cultures at 37° C. and 5% CO2/air atmosphere in a 3:1 mixture of Dulbecco's modified Eagle medium (DMEM) and Ham's F12 containing 25 mM L-glucose, 100 units/ml penicillin G, 100 microgram/ml streptomyocin, 250 nanogram/ml amphoterin B, 300 microgram/ml genticin and supplemented with 5% fetal bovine serum. Monolayer cells are adapted to suspension culture (Berg et al., Biotechniques Vol. 14, No.6, 1993) and are grown in spinner or shaker flasks (37° C. and 7.5% CO2/air overlay) in a modified DME/F12 medium containing 0.1 mM CaCl2, 2% equine serum and 100 microgram/ml sodium heparin (to prevent cell-cell aggregation). […]
Solutions of a compound of formula I (300 picomolar to 30 micromolar) or unlabelled NDP-alpha-MSH (1 picomolar to 100 nanomolar) are added to 150 microliters of membrane binding buffer to yield final concentrations (listed in parantheses). […] The radioactivity is quantified in a Wallac Trilux Microplate Scintillation counter. […]

[2] = biological target: T1, MC4; test: Functional agonist assay in HEK 293 cells stably expressing melanocortin receptor (luciferase reporter / whole cell cAMP accumulation); conditions: tested form: TFA
Source text: Functional cell based assays are developed to discriminate agonists and antagonists.
Agonist Assay: HEK 293 cells stably expressing a human melanocortin receptor (see e.g., Yang, et al., Mol-Endocrinol., 11(3): 274-80, 1997) are dissociated from tissue culture flasks using a trypsin/EDTA solution (0.25%; Life Technologies, Rockville, Md.). Cells are collected by centrifugation and resuspended in DMEM (Life Technologies, Rockville, Md.) supplemented with 1% L-glutamine and 0.5% fetal bovine serum. Cells are counted and diluted to 4.5×10^5/ml.
A compound of formula I is diluted in dimethylsulfoxide (DMSO) (3×10^−5 to 3×10^−10 M final concentrations) and 0.05 volume of compound solution is added to 0.95 volumes of cell suspension; the final DMSO concentration is 0.5%. After incubation at 37° C./5% CO2 for 5 hours, cells are lysed by addition of luciferin solution (50 mM Tris, 1 mM MgCl2, 0.2% Triton-X100, 5 mM DTT, 500 micromolar Coenzyme A, 150 micromolar ATP, and 440 micromolar luciferin) to quantify the activity of the reporter gene luciferase, an indirect measurement of intracellular cAMP production.
Luciferase activity is measured from the cell lysate using a Wallac Victor 2 luminometer. […]
Radioligand binding assays were run in SPA buffer (50 mM Sodium Acetate, 0.1% BSA). […] The plates were counted in a Wallac MicroBeta counter after a 12-hour incubation. […]

CC(C)CC1(N2CCN(C(=O)[C@@H](Cc3ccc(Cl)cc3)NC(=O)CC3NCc4ccccc43)CC2)CCN(C(C)C)CC1 (stereo partly drawn)
Ki [1]: 9 nM | EC50 ([2]; read-out: MC4 EC50, agonist potency, concentration giving half maximal stimulation): 4.3 nM | % Rel. Eff. ([2]; relative efficacy compared to NDP-alpha-MSH defined as 100% agonist): 104%
